The record followed here is patent publication US10626094B2 (La Jolla Institute of Allergy & Immunology, priority 2014, dated 2020).

By UniProt entry, the sequences of proteins in these tests, tags left out.
UniProt P24666, whole entry: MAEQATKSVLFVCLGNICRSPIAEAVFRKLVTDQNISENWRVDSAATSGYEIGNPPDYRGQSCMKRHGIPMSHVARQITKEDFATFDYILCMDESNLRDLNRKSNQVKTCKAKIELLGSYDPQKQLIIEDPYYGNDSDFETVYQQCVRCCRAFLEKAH

The structures appear in SMILES notation. Like-named read-outs stand apart in the source and are kept apart here.

This experiment addresses LMPTP-A (Low Molecular Weight Protein Tyrosine Phosphatase-A) enzyme (Homo sapiens (Human), UniProt P24666). In words: LMPTP primary screening / LMPTP (OMFP) enzyme inhibition assay, fluorescence intensity. As to conditions: for LMPTP (OMFP) potency in words: SAR discussion. In kind it is biochemical.
Where [1] appears, read: read-out: LMPTP (OMFP) (IC50), Table 1 quinazolinone series, P sample (purchased from commercial sources).
Setting [2] is: read-out: LMPTP (OMFP) (IC50), Table 1 quinazolinone series, CP sample (cherry pick of DMSO solution from NIH MLSMR).

For the compound `c1ccc(-c2cc(N3CCCCC3)c3ccccc3n2)cc1`, the “LMPTP (OMFP) potency in words” value is “less than the screening hit”. Besides, the IC50 (read-out: LMPTP (OMFP) (IC50), Table 2 quinoline series, P sample (purchased from commercial sources)) was 11.1 µM. As to `Cc1ccc(-c2nc(NCc3cccnc3)c3ccccc3n2)cc1`, the IC50 under setting [1] worked out at 12.9 µM. The same measure, in the same setting: the value for `c1ccc(-c2nc(NCc3cccnc3)c3ccccc3n2)cc1` was 19 µM.

With `O=C(O)c1ccccc1Nc1nc(-c2ccc([N+](=O)[O-])cc2)nc2ccccc12`, the IC50 under setting [2] is more than 80 µM. The same measure, in the same setting: under `OCC(Nc1nc(-c2ccccc2)nc2ccccc12)c1ccccc1` (centres unmarked) stands 17 µM. For `c1ccc(-c2nc(NCCCn3ccnc3)c3ccccc3n2)cc1`, the IC50 under setting [1] turned out to be 17.8 µM. On to `c1ccc(-c2cc(OCCCN3CCCCC3)c3ccccc3n2)cc1`, for which the “LMPTP (OMFP) potency in words” value was “inactive”.

Take `CC(C)OCCCNc1nc(-c2ccccc2)nc2ccccc12`: the IC50 under setting [1] was 18.1 µM. `Cc1ccc(-c2nc(NCCN3CCOCC3)c3ccccc3n2)cc1`: the IC50 under setting [1] worked out at 18.8 µM. As to `O=C(OCCNc1nc(-c2ccccc2)nc2ccccc12)c1ccncc1`, under setting [1], the IC50 amounted to 20.9 µM. On to `Fc1ccccc1-c1nc(NCCCN2CCOCC2)c2ccccc2n1`, for which the half-inhibitory concentration (IC50) under setting [2] was 22 µM. Consider `O=C(OCCNc1nc(-c2ccccc2)nc2ccccc12)c1cccnc1`, for which, under setting [1], the IC50 turned out to be 24.2 µM. As for `Clc1ccccc1-c1cc(NCCCN2CCCCC2)c2ccccc2n1`, the IC50 (read-out: LMPTP (OMFP) IC50) worked out at 11.2 µM.

For orientation: IC50 means the concentration needed to halve the response being measured.
